Assay type in all cases: binding
The target of assay [1] is T1, CXCL12 (Homo sapiens, UniProt P48061).
T1 construct: purchased Peprotech
As to the kind of experiment: Dot blot, TAMRA-msR4M-L1 on spotted human CXCL12. As for the experimental part: (§1) Non-specific binding was blocked with Tris-buffered saline (TBS), pH 7.4, containing 0.1% Tween-20 (TBS-T) and 1% BSA. […] Fluorescence intensities were measured at 600 nm using an Odyssey® Fc imager (LICOR Biosciences, Bad Homburg, Germany). The total intensity of each spot was automatically corrected by the individual background signal.

Protein sequences, listed by entry. Tags and fused reporters are not part of them. Residues count along the entry.
UniProt P48061, 22-89 limits assumed: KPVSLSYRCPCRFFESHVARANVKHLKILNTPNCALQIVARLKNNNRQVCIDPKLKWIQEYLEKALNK

Another assay has as its target T2, MIF (Homo sapiens, UniProt P14174).
T2 construct: made in house; host or cells: E. coli BL21/DE3 (pET11b)
T2 sequence (P14174 2-115): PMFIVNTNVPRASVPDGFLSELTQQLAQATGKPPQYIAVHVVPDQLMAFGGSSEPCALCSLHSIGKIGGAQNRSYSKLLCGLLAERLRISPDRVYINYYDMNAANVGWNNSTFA
As to the kind of experiment: Dot blot, TAMRA-msR4M-L1 on spotted human MIF (incl. competition with MIF[54–80]). As to the method: as §1

For assay [2], the target named is T1, CXCL12. Description: Fluorescence spectroscopic titration of Fluos-labeled ectodomain peptides with CXCL12.
[3] abbreviates: fluorescence spectroscopy, Fluos-labeled peptide 5 nM titrated with CXCL12, mean ± SD of 3, read-out: Fluos (TAMRA)-ECD/CXCL12 (app. KD).

The results in this text go back to PMC7689490, “Designed CXCR4 mimic acts as a soluble chemokine receptor that blocks atherogenic inflammation by agonist-specific targeting” (Nature Communications, 2020).

Read-outs that look alike come from different tables or passages of the source. Where only a bound is given, the exact number is not on record here.

As to `CC[C@H](C)[C@H](NC(=O)[C@H](Cc1ccc(O)cc1)NC(=O)[C@H](CCCNC(=N)N)NC(=O)[C@H](CC(=O)O)NC(=O)CCCCCCCCCCCNC(=O)CCCCCNC(=O)[C@H](CCCCN)NC(=O)[C@H](CS)NC(=O)[C@H](CC(C)C)NC(=O)[C@H](Cc1ccccc1)NC(=O)[C@H](CC(N)=O)NC(=O)CNC(=O)[C@H](Cc1ccccc1)NC(=O)[C@H](Cc1ccc(O)cc1)NC(=O)[C@H](Cc1c[nH]c2ccccc12)NC(=O)[C@H](CC(N)=O)NC(=O)[C@H](C)NC(=O)[C@@H](NC(=O)[C@H](C)NC(=O)[C@H](CC(=O)O)NC(=O)c1ccc2c(c1)C(=O)OC21c2ccc(N(C)C)cc2Oc2cc(N(C)C)ccc21)C(C)C)C(=O)N[C@@H](CS)C(=O)N[C@@H](CC(=O)O)C(=O)N[C@@H](CCCNC(=N)N)C(=O)N[C@@H](Cc1ccccc1)C(=O)N[C@@H](Cc1ccc(O)cc1)C(=O)N1CCC[C@H]1C(=O)N[C@@H](CC(N)=O)C(=O)N[C@@H](CC(=O)O)C(=O)N[C@@H](CC(C)C)C(=O)N[C@@H](Cc1c[nH]c2ccccc12)C(=O)N[C@H](C(N)=O)C(C)C` [TAMRA-msR4M-L1], the “binding to immobilized CXCL12 by dot blot” value at CXCL12 [1] is “no binding”. The “detection of immobilized MIF by dot blot” value on MIF is recorded as “readily detected in a concentration-dependent manner”.

Consider `CC[C@H](C)[C@@H]1NC(=O)[C@H](Cc2ccc(O)cc2)NC(=O)[C@H](CCCNC(=N)N)NC(=O)[C@H](CC(=O)O)NC(=O)CCCCCCCCCCCNC(=O)CCCCCNC(=O)[C@H](CCCCN)NC(=O)[C@@H](NC(=O)[C@H](CC(C)C)NC(=O)[C@H](Cc2ccccc2)NC(=O)[C@H](CC(N)=O)NC(=O)CNC(=O)[C@H](Cc2ccccc2)NC(=O)[C@H](Cc2ccc(O)cc2)NC(=O)[C@H](Cc2c[nH]c3ccccc23)NC(=O)[C@H](CC(N)=O)NC(=O)[C@H](C)NC(=O)[C@@H](NC(=O)[C@H](C)NC(=O)[C@@H](N)CC(=O)O)C(C)C)CSSC[C@@H](C(=O)N[C@@H](CC(=O)O)C(=O)N[C@@H](CCCNC(=N)N)C(=O)N[C@@H](Cc2ccccc2)C(=O)N[C@@H](Cc2ccc(O)cc2)C(=O)N2CCC[C@H]2C(=O)N[C@@H](CC(N)=O)C(=O)N[C@@H](CC(=O)O)C(=O)N[C@@H](CC(C)C)C(=O)N[C@@H](Cc2c[nH]c3ccccc23)C(=O)N[C@H](C(N)=O)C(C)C)NC1=O` [msR4M-L1ox], for which the Kd on CXCL12 [2] (setting [3]) came out at 84.6 ± 42.1 nM.

With `CC[C@H](C)[C@@H]1NC(=O)[C@H](Cc2ccc(O)cc2)NC(=O)[C@H](CCCNC(=N)N)NC(=O)[C@H](CC(=O)O)NC(=O)CCCCCCCCCCCNC(=O)COCCOCCNC(=O)[C@H](CCCCN)NC(=O)[C@@H](NC(=O)[C@H](CC(C)C)NC(=O)[C@H](Cc2ccccc2)NC(=O)[C@H](CC(N)=O)NC(=O)CNC(=O)[C@H](Cc2ccccc2)NC(=O)[C@H](Cc2ccc(O)cc2)NC(=O)[C@H](Cc2c[nH]c3ccccc23)NC(=O)[C@H](CC(N)=O)NC(=O)[C@H](C)NC(=O)[C@@H](NC(=O)[C@H](C)NC(=O)[C@@H](N)CC(=O)O)C(C)C)CSSC[C@@H](C(=O)N[C@@H](CC(=O)O)C(=O)N[C@@H](CCCNC(=N)N)C(=O)N[C@@H](Cc2ccccc2)C(=O)N[C@@H](Cc2ccc(O)cc2)C(=O)N2CCC[C@H]2C(=O)N[C@@H](CC(N)=O)C(=O)N[C@@H](CC(=O)O)C(=O)N[C@@H](CC(C)C)C(=O)N[C@@H](Cc2c[nH]c3ccccc23)C(=O)N[C@H](C(N)=O)C(C)C)NC1=O` [msR4M-L2ox], the Kd at CXCL12 [2] (setting [3]) was 54.8 ± 10.3 nM.

`CC[C@H](C)[C@H](NC(=O)[C@H](Cc1ccc(O)cc1)NC(=O)[C@H](CCCNC(=N)N)NC(=O)[C@H](CC(=O)O)NC(=O)CCCCCCCCCCCNC(=O)COCCOCCNC(=O)[C@H](CCCCN)NC(=O)[C@H](CS)NC(=O)[C@H](CC(C)C)NC(=O)[C@H](Cc1ccccc1)NC(=O)[C@H](CC(N)=O)NC(=O)CNC(=O)[C@H](Cc1ccccc1)NC(=O)[C@H](Cc1ccc(O)cc1)NC(=O)[C@H](Cc1c[nH]c2ccccc12)NC(=O)[C@H](CC(N)=O)NC(=O)[C@H](C)NC(=O)[C@@H](NC(=O)[C@H](C)NC(=O)[C@@H](N)CC(=O)O)C(C)C)C(=O)N[C@@H](CS)C(=O)N[C@@H](CC(=O)O)C(=O)N[C@@H](CCCNC(=N)N)C(=O)N[C@@H](Cc1ccccc1)C(=O)N[C@@H](Cc1ccc(O)cc1)C(=O)N1CCC[C@H]1C(=O)N[C@@H](CC(N)=O)C(=O)N[C@@H](CC(=O)O)C(=O)N[C@@H](CC(C)C)C(=O)N[C@@H](Cc1c[nH]c2ccccc12)C(=O)N[C@H](C(N)=O)C(C)C` [msR4M-L2]: the Kd at CXCL12 [2] (Fluos-labeled peptide titrated with CXCL12, emission at 522 nm, 1st curve, read-out: App. Kd, 1st curve) was over 6340 nM; at CXCL12 [2] (Fluos-labeled peptide titrated with CXCL12, emission at 522 nm, 2nd curve, read-out: App. Kd, 2nd curve), over 6340 nM; on CXCL12 [2] (Fluos-labeled peptide titrated with CXCL12, emission at 522 nm, 3rd curve, read-out: App. Kd, 3rd curve), over 6340 nM.
